The target in assay [1] is hNurr1_RXRαFL (NURR-1/RXRα heterodimer) (Homo sapiens, UniProt P19793). As to the kind of experiment: Transactivation assay, NURR-1-Gal4/RXRα luciferase reporter in Cos-7 cells. Here is the method: (§1) To start with, using an in vitro assay, the capacity of the compounds according to the invention to behave as an activator of the heterodimers formed by the NURR-1 nuclear receptor and the RXR nuclear receptors was measured.
(§2) A transactivation assay was used as a primary screening test. Cos-7 cells were co-transfected with a plasmid expressing a chimera of the human receptor NURR-1-Gal4, a plasmid expressing the RXR human receptor (RXRα or RXRγ receptor) and a reporter plasmid 5Gal4pGL3-TK-Luc. The transfections were carried out using a chemical agent (Jet PEI).
(§3) The transfected cells were distributed in 384-well plates and left to stand for 24 hours.
(§4) After 24 hours, the culture medium was changed. The test products were added (final concentration between 10^−4 and 3.10^−10 M) in the culture medium. After incubation overnight, the expression of luciferase was measured after addition of “SteadyGlo” in accordance with the manufacturer's (Promega) instructions.
(§5) 4-[[6-Methyl-2-phenyl-5-(2-propenyl)-4-pyrimidinyl]amino]benzoic acid (called XCT0135908) at 2×10^−5 M (RXR agonist) was used as reference.
(§6) The levels of induction were calculated in relation to the basal activity of each heterodimer. The results were expressed as a percentage of the level of induction relative to the level of induction obtained with the reference (the level of induction of the reference is arbitrarily equal to 100%).
(A reporter such as luciferase makes a cellular process visible.)

The chains behind the UniProt entries cited, without tags or fusion partners. Residues count along the entry.
UniProt P19793, whole entry: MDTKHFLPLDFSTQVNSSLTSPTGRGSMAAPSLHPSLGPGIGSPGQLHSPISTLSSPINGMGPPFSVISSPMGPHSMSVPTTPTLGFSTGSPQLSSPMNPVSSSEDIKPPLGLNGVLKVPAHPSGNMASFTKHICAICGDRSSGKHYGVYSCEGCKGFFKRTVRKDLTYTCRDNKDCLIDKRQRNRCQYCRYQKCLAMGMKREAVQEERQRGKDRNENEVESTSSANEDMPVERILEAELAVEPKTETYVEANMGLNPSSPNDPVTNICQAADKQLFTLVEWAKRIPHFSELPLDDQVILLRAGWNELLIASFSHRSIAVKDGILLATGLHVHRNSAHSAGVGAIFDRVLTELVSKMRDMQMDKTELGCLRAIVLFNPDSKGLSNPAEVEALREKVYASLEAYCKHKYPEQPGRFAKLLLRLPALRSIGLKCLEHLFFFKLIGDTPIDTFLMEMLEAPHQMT
UniProt P48443, whole entry: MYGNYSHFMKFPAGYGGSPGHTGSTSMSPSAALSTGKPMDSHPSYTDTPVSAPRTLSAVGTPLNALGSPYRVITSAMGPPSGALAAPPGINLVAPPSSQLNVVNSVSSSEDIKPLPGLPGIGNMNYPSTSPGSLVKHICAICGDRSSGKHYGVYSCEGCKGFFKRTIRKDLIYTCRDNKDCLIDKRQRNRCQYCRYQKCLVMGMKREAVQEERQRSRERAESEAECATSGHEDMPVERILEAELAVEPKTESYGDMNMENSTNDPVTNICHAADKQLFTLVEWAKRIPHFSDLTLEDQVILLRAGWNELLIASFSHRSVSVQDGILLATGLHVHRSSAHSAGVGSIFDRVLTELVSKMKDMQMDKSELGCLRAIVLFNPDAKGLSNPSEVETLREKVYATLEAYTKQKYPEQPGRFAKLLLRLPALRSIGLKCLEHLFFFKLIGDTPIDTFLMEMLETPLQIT
UniProt P43354, 328-598 partner limits assumed: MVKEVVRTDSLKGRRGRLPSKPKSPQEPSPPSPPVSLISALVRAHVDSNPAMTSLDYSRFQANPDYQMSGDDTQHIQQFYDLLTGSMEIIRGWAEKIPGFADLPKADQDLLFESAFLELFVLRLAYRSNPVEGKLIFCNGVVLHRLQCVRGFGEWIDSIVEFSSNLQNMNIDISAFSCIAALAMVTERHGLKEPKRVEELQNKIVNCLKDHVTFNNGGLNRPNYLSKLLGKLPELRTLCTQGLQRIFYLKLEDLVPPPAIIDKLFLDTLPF

For assay [2], the system named is hNurr1_RXRγFL (NURR-1/RXRγ heterodimer). As to the kind of experiment: Transactivation assay, NURR-1-Gal4/RXRγ luciferase reporter in Cos-7 cells. To be noted: NURR-1/RXR transactivation, both heterodimers of the table. As to the method: as §1, §2, §3, §4, §5, §6
The target of assay [3] is hNurr1_RXRγFL (NURR-1/RXRγ heterodimer) (Homo sapiens, UniProt P48443). The assay is described as above. As to the method:
as §1, §2, §3, §4, §5, §6

Where [4] appears, read: level of induction relative to XCT0135908 at 2×10^-5 M = 100%.

For `CC(C)c1ccc(S(=O)(=O)n2c(CCCC(=O)O)cc3cc(Cl)ccc32)cc1`, the “Eff hNurr1_RXRαFL (efficacy relative to the reference XCT0135908)” value in assay [1] (setting [4]) turned out to be 75%. The EC50 in assay [1] (read-out: EC50 hNurr1_RXRαFL, Cos-7 cells, Gal4 luciferase reporter) was 571 nM; in assay [3] (read-out: EC50 hNurr1_RXRγFL, Cos-7 cells, Gal4 luciferase reporter), 1110 nM. Moreover, the “EC50 of comparative compound relative to compounds of the invention (times greater)” value in assay [2] was “at least 10 times”. Moreover, in assay [3] (setting [4]), the “Eff hNurr1_RXRγFL (efficacy relative to the reference XCT0135908)” value came out at 74%.

The EC50 is the concentration at which the effect is half-maximal.

The values are drawn from US8575210B2, “Use of indole derivatives as NURR-1 activators for treating parkinson's disease” (Laboratoires Fournier SA, priority 2008, dated 2013).
